Here are results for one molecule from US20250325793A1, “INTRACALVARIOSSEOUS DRUG ADMINISTRATION DEVICE FOR DELIVERING DRUG BY BYPASSING BLOOD-BRAIN BARRIER” (GACHON UNIVERSITY OF INDUSTRY-ACADEMIC COOPERATION …, priority 2023, published 2025).

The nature of this data set: Plasma, brain interstitial fluid (microdialysis) and whole-brain drug levels after intravenous (IV) and intracalvariosseous (ICO) administration.

The structures appear in SMILES notation.

For the molecule `CCN(C)C(=O)Oc1cccc([C@H](C)N(C)C)c1.O=C(O)C(O)C(O)C(=O)O` [RVG, rivastigmine i-tartrates], the “brain-to-plasma ratio (Kp), ICO administration group relative to IV administration group” value (at 24 hours after administration, fold higher in ICO (5 mg/kg) than IV (0.5 mg/kg)) turned out to be 107.8 times. Further, the “AUCplasma of the ICO administration group compared with the IV administration group” value (rat plasma, up to 24 h, ICO 5 mg/kg vs IV 0.5 mg/kg) is “relatively lower”. Besides, the “Cbr (brain drug concentration), ICO administration group relative to IV administration group” value (whole brain at 24 hours after administration, fold higher in ICO (5 mg/kg) than IV (0.5 mg/kg)) was found to be 18.6 times.
